{"source": "paper PMC3307390", "about": "(Journal of Immunology (Baltimore, Md. : 1950), 2010)", "key": {"[1]": {"target": "DQA1*0401/DQB1*0402 (Homo sapiens, UniProt P01909+P01920, A45G/E106S/E183D/E77G/E98D/H199R/I129T/K197E/L107V/L178F/L91T/P87R/P88L/R102E/S185I/S97I/T103D/T217I/V99I/Y41F/Y58G)", "experiment": "biochemical"}, "[2]": {"target": "DQA1*0501/DQB1*0301 (Homo sapiens, UniProt P01909+P01920)", "experiment": "biochemical"}, "[3]": {"target": "DQA1*0501/DQB1*0201 (Homo sapiens, UniProt P01909+P01920, A45G/A70V/D89A/E106A/E77G/E98D/H199R/L107V/N214S/P84L/P87L/T103K/T109R/T172A/T60S/V78E/V99I/Y58L/Y62S/Y69I/Y79F)", "experiment": "biochemical"}, "[4]": {"target": "HLA-DQ DQA1*0501/DQB1*0301 (human (endogenous in EBV-transformed cell line Herluf))", "experiment": "radioligand binding"}, "[5]": {"target": "HLA-DQ DQA1*0401/DQB1*0402 (human (endogenous in EBV-transformed cell line OLL))", "experiment": "radioligand binding"}}}
{"molecule": "CC[C@H](C)[C@H](NC(=O)[C@H](CC(=O)O)NC(=O)[C@@H](N)CCCCN)C(=O)N[C@@H](CC(C)C)C(=O)N[C@@H](CCC(=O)O)C(=O)N[C@@H](CC(=O)O)C(=O)N[C@@H](CCC(=O)O)C(=O)N[C@@H](CCCNC(=N)N)C(=O)N[C@@H](C)C(=O)N[C@@H](C)C(=O)N[C@H](C(=O)N[C@@H](CC(=O)O)C(=O)N[C@H](C(=O)N[C@@H](Cc1ccc(O)cc1)C(=O)N[C@@H](CS)C(=O)O)[C@@H](C)O)C(C)C", "values": [{"measurement": "IC50", "setting": "[1]", "result": 0.045, "unit": "µM"}]}
{"molecule": "CC[C@H](C)[C@H](NC(=O)[C@H](CS)NC(=O)[C@@H]1CCCN1C(=O)[C@H](CCC(=O)O)NC(=O)[C@H](CO)NC(=O)CNC(=O)[C@@H](N)Cc1c[nH]cn1)C(=O)N[C@H](C(=O)N[C@@H](Cc1c[nH]cn1)C(=O)N[C@@H](CCCNC(=N)N)C(=O)NCC(=O)N[C@@H](CCCCN)C(=O)N1CCC[C@H]1C(=O)N[C@@H](Cc1ccccc1)C(=O)N[C@@H](CCC(N)=O)C(=O)N[C@@H](CC(C)C)C(=O)N[C@@H](CCC(=O)O)C(=O)N[C@@H](C)C(=O)N[C@H](C(=O)O)C(C)C)[C@@H](C)CC", "values": [{"measurement": "IC50", "setting": "[2]", "result": 0.016, "unit": "µM"}]}
{"molecule": "CSCC[C@H](NC(=O)[C@H](CCCNC(=N)N)NC(=O)[C@H](CCSC)NC(=O)[C@H](CCCCN)NC(=O)[C@H](CO)NC(=O)[C@@H](NC(=O)[C@@H]1CCCN1C(=O)[C@@H](N)CCCCN)C(C)C)C(=O)N[C@@H](C)C(=O)N[C@H](C(=O)N1CCC[C@H]1C(=O)N[C@@H](CC(C)C)C(=O)N[C@@H](CC(C)C)C(=O)N[C@@H](CCSC)C(=O)N[C@@H](CCC(N)=O)C(=O)N[C@@H](C)C(=O)N[C@@H](CC(C)C)C(=O)N1CCC[C@H]1C(=O)O)[C@@H](C)O", "values": [{"measurement": "IC50", "setting": "[3]", "result": 0.03, "unit": "µM"}]}
{"molecule": "CC[C@H](C)[C@H](NC(=O)[C@H](C)NC(=O)[C@H](CS)NC(=O)[C@H](C)NC(=O)[C@H](CC(C)C)NC(=O)[C@@H](NC(=O)CNC(=O)[C@H](CC(=O)O)NC(=O)[C@H](CC(=O)O)NC(=O)CNC(=O)[C@@H](N)CCSC)C(C)C)C(=O)N[C@@H](C)C(=O)N[C@H](C(=O)N[C@@H](Cc1c[nH]cn1)C(=O)N[C@@H](C)C(=O)N[C@@H](CCCCN)C(=O)N[C@H](C(=O)N[C@@H](CCCNC(=N)N)C(=O)N[C@@H](CC(=O)O)C(=O)O)[C@@H](C)CC)[C@@H](C)O", "values": [{"measurement": "IC50", "setting": "[2]", "result": 0.014, "unit": "µM"}]}
{"molecule": "YAHAAHAAHAAHAAHAA", "note": "[ROIV reiterative nonnatural ligand …, unlabeled]", "values": [{"measurement": "IC50", "setting": "[4]", "result": 0.018, "unit": "µM"}]}
{"molecule": "EEDIEIIPIQEEEY", "note": "[Homo sapiens CD20 249 peptide …, unlabeled]", "values": [{"measurement": "IC50", "setting": "[5]", "result": 0.033, "unit": "µM"}]}
{"molecule": "KDILEDERAAVDTYC", "note": "[H. sapiens DRB1*0402 peptide …]", "values": [{"measurement": "IC50", "setting": "[5]", "result": 0.045, "unit": "µM"}]}
